Kd data for five compounds are collected here from patent EP4428121A1, “MODULATORS OF SORTILIN ACTIVITY” (Vesper Bio Aps, priority 2023, dated 2024).

In the assay the target is T1, Human (6-His)Sortilin (Homo sapiens, UniProt Q99523).
T1 construct: purchased RnD Systems
T1 sequence (Q99523 78-755 limits assumed): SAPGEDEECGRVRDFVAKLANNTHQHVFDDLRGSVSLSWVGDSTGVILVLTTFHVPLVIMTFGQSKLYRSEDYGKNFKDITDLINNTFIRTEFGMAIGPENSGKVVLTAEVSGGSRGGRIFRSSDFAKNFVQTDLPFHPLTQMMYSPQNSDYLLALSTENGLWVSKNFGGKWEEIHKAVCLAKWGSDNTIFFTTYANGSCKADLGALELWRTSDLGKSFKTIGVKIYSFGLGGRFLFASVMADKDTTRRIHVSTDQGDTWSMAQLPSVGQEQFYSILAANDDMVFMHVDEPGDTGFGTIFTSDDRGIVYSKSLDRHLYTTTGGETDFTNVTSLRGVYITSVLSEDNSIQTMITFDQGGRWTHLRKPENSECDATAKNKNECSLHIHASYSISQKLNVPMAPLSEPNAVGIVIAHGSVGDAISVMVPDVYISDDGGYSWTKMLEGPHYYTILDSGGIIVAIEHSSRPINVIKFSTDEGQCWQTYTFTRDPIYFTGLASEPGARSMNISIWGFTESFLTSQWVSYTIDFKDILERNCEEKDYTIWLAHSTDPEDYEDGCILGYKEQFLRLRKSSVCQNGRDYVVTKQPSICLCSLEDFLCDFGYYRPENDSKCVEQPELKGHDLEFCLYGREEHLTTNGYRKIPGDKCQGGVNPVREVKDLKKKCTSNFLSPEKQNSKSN
Briefly: Human Sortilin GCI (Grating-Coupled Interferometry) binding assay. As to conditions: Creoptix WAVE-RAPID, single concentration (usually 1 µM, 10 µM or 100 µM), immobilised Human (6-His)Sortilin, 1:1 kinetic binding model.

Structures are written as SMILES.

In general, Kd refers to the concentration at which binding is half-saturated.

Turning to `CC(C)(C)CCC(Nc1cncc2ccccc12)c1nnn[nH]1` (racemic) [Example 32, N-(4,4-dimethyl-1-(1H-tetrazol-5-yl)pentyl)isoquinolin-4-amine], the Kd came to 262 nM.

In turn, `CC(C)(C)CC(Nc1cnc2ccccc2c1)c1nnn[nH]1` (racemic) [Example 44, N-(3,3-dimethyl-1-(1H-tetrazol-5-yl)butyl)quinolin-3-amine] gave a Kd of 6210 nM.

In turn, `CC(C)(C)CC(Nc1ccc2ccccc2n1)c1nnn[nH]1` (racemic) [Example 54, N-(3,3-dimethyl-1-(1H-tetrazol-5-yl)butyl)quinolin-2-amine] came in with a Kd of 7380 nM.

The compound `CC(C)(C)CC[C@H](Nc1cncc2ccccc12)c1nn[nH]n1` (single isomer, unassigned) [Example 93] came in with a Kd of 84.1 nM.

Consider `CC(C)(C)CC[C@@H](Nc1cncc2ccccc12)c1nn[nH]n1` (single isomer, unassigned) [Example 94], for which binding was put at a Kd of 1300 nM.
